# According to PubChem BioAssay AID720702 (The Scripps Research Institute Molecular Screening Center, 2013):
# Sequences of proteins named here, by UniProt entry; tags and fusion partners are left off.
# UniProt O95551, whole entry: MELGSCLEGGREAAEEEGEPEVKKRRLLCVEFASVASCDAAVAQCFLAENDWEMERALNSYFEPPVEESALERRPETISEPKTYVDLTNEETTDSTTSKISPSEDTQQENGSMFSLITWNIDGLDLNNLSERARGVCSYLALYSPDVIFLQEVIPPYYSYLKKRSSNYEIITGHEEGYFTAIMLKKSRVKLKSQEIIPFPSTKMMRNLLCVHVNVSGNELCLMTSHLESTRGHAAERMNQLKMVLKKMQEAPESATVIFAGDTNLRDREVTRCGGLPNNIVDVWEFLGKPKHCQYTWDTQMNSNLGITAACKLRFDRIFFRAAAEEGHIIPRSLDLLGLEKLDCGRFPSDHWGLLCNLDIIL
# The list shows a part of the results, in another mix than the full data. Some of these compounds have results that are not shown, active ones among them. The source made the active and inactive calls.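 Rule for the calls: active = inhibition above the mean of all tested compounds plus 3 SD, set per campaign (cut at about 25% in these data); inactive = the rest.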
# Target: Tyrosyl-DNA phosphodiesterase 2 (Homo sapiens) (UniProt O95551)
# Assay: human TDP2 enzyme inhibitors, primary screen, biochemical, epi absorbance, recombinant enzyme (AID 720702);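 note: 0% = DMSO with enzyme and 100% = buffer with substrate but no TDP2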
# Conditions: recombinant TDP2, T5PNP hydrolysis, p-nitrophenol absorbance 415 nm; at 12.8 µM; hits give high values
# How it was run: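 test system = human TDP2 enzyme | input = TDP2 enzyme at 120 nM final | medium = 50 mM Tris-HCl pH 7.5 with Mg2+, KCl, DTT, BSA | also added = T5PNP substrate, 5 mM | times = 2 h at 37 °C | technique = epi absorbance | benchmarks = high control without enzyme, low control DMSO plus TDP2 | replication = each compound tested once, singlicate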
row,Structure (SMILES),inhibition
1,CC(C)N1C(=O)CC2(CCN(CCOC(=O)C(O)(c3ccccc3)c3ccccc3)CC2)C1=O,inactive: 7.54%
2,CCN(CC)CC(C)C(C)OC(=O)C(O)(c1ccccc1)c1ccccc1 (stereo unspecified),inactive: 3.61%
3,COc1cc(SC)ccc1C(=O)NCC1(N(C)C)CCCCC1,inactive: 7.67%
4,Cc1ccc(C(=O)NCC2(N3CCCCC3)CCCCC2)cc1,inactive: 7.95%
5,O=C(NCC1(N2CCCCC2)CCCCC1)c1cc([N+](=O)[O-])ccc1Cl,inactive: 0.69%
6,CN1[C@@H]2CC[C@H]1CC(OC(=O)C(O)(c1ccccc1)c1ccccc1)C2 (stereo partly specified),inactive: 14.8%
7,C=CCN1CCN(CCOC(=O)C(O)(c2ccccc2)c2ccccc2)CC1,inactive: 4.18%
8,O=C(NCC1(N2CCCCC2)CCCCC1)c1cc(F)c(F)cc1Cl,inactive: -5.19%
9,Cc1cc(C(=O)NCC2(N3CCCCC3)CCCCC2)ccc1[N+](=O)[O-],inactive: 2.23%
10,CCN1CCCC(OC(=O)C2(O)c3ccccc3C=Cc3ccccc32)C1 (stereo unspecified),inactive: -5.94%
11,O=C(NCC1(N2CCCCC2)CCCCC1)c1cccc(Br)c1,inactive: 1.69%
12,COc1ccc(C(=O)NCC2(N(C)C)CCCCC2)cc1,inactive: -15.9%
13,Cc1ccccc1C(=O)NCC1(N2CCCCC2)CCCCC1,inactive: 0.96%
14,CN(C)C1CCCC1OC(=O)C(O)(c1ccccc1)c1ccccc1 (stereo unspecified),inactive: 7.54%
15,CN(C)c1ccc(C(=O)NCC2(N(C)C)CCCCC2)cc1,inactive: -7.66%
16,COc1cccc(C(=O)NCC2(N3CCCCC3)CCCCC2)c1,inactive: 0.39%
17,COc1ccc(Cl)cc1C(=O)NCC1(N(C)C)CCCCC1,inactive: -15.8%
18,O=C(NCC1(N2CCCCC2)CCCCC1)c1cccc(Cl)c1,inactive: -1.69%
19,CN(C)C1(CNC(=O)c2ccc(Br)cc2)CCCCC1,inactive: 16.7%
20,COc1cc(C(=O)NCC2(N(C)C)CCCCC2)c([N+](=O)[O-])cc1OC,inactive: 7.57%
21,COc1ccc(Br)c(C(=O)NCC2(N3CCCCC3)CCCCC2)c1,inactive: -3.42%
22,C=C(C)C#CC(O)(C(=O)OC1CCN(C)CC1)c1ccccc1 (stereo unspecified),inactive: -6.32%
23,CN(C)c1cccc(C(=O)NCC2(N(C)C)CCCCC2)c1,inactive: -1.04%
24,CC(C)Oc1ccc(C(=O)NCC2(N(C)C)CCCCC2)cc1,inactive: -0.36%
25,O=C(OCCN1CCCC1)C(O)(c1ccccc1)c1ccccc1,inactive: 4.44%
26,O=C(OC1CN2CCC1CC2)C(CO)(c1ccccc1)c1ccccc1 (stereo unspecified),inactive: 1.57%
